# Target: isolated polymerase domain (I1780-V2590) of DNA polymerase theta (Polθ) (Homo sapiens (Human), UniProt O75417)
# The chains behind the UniProt entries cited, without tags or fusion partners. Residues count along the entry.
# UniProt O75417, 1780-2590: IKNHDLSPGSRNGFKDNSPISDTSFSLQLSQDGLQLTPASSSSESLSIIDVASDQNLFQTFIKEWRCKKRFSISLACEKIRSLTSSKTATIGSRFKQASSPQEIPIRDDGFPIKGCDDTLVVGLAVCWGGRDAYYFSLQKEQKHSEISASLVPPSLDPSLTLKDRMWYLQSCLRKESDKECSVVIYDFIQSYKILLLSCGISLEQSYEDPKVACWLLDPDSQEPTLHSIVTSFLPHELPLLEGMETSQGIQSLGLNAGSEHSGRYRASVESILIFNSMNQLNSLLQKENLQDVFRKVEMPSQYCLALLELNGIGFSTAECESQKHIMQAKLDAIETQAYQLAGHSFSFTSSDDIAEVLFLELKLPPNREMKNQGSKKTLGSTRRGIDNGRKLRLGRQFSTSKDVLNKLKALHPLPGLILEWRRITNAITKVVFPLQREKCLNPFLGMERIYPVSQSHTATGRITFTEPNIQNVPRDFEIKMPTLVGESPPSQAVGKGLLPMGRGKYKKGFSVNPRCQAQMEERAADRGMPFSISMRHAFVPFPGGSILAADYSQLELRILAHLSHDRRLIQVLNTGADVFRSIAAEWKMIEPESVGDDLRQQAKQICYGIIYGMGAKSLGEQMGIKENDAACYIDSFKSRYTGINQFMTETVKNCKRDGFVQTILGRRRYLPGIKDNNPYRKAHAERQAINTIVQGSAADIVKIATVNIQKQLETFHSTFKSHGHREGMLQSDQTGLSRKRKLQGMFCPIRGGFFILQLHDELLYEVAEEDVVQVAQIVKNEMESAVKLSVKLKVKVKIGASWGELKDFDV
row,Structure (SMILES),IC50 [nM]
1,"CC1(Oc2cccc3c2nc(-c2ccc(OCCN4CCNCC4)cc2Cl)n3Cc2ccccn2)CCC1 [Example P1, 2-(2-chloro-4-(2-(piperazin-1-yl)ethoxy)phenyl)-4-(1-methylcyclobutoxy)-1-(pyridin-2-ylmethyl)-1H-benzo[d]imidazole]",3.16
2,"Cc1ccnc(Cn2c(-c3ccc(OCCN4CCNCC4)cc3Cl)nc3c(OC4(C)CC4)ncnc32)c1 [Example L2, 8-(2-chloro-4-(2-(piperazin-1-yl)ethoxy)phenyl)-6-(1-methylcyclopropoxy)-9-((4-methylpyridin-2-yl)methyl)-9H-purine]",2.51
3,"CN1CCN(CCOc2cccc(-c3nc4c(OC5(C)CC5)ncnc4n3Cc3ccccc3)c2Cl)CC1 [Example D12, 9-benzyl-8-(2-chloro-3-(2-(4-methylpiperazin-1-yl)ethoxy)phenyl)-6-(1-methylcyclopropoxy)-9H-purine]",2
4,"Cc1cc(N2CCNCC2)ncc1-c1nc2c(OC3(C)CC3)ncnc2n1Cc1ccccc1 [Example C5, 9-benzyl-8-(4-methyl-6-(piperazin-1-yl)pyridin-3-yl)-6-(1-methylcyclopropoxy)-9H-purine]",2.51
5,"COc1ccc(F)cc1Cn1c(-c2cccc(OCC(C)CC(=O)O)c2Cl)nc2c(OC3(C)CC3)ncnc21 (single isomer, unassigned) [Example U80, 4-(2-chloro-3-(9-(5-fluoro-2-methoxybenzyl)-6-(1-methylcyclopropoxy)-9H-purin-8-yl)phenoxy)-3-methylbutanoic acid]",3.16
6,"CC1(Oc2ncnc3c2nc(-c2ccc(O[C@H]4CCNC4)cc2Cl)n3Cc2ccccc2)CC1 [Example D17, (S)-9-benzyl-8-(2-chloro-4-(pyrrolidin-3-yloxy)phenyl)-6-(1-methylcyclopropoxy)-9H-purine]",5.01
7,"CC1(Oc2ccnc3c2nc(-c2ccc(OCCN4CCNCC4)cc2Cl)n3Cc2ccccn2)CCC1 [Example P3, 2-(2-chloro-4-(2-(piperazin-1-yl)ethoxy)phenyl)-7-(1-methylcyclobutoxy)-3-(pyridin-2-ylmethyl)-3H-imidazo[4,5-b]pyridine]",6.31
8,"CC1(Oc2ncnc3c2nc(-c2ccc(OCCN4CCNCC4)cc2Cl)n3Cc2ccccn2)CC1 [Example E7, 8-(2-chloro-4-(2-(piperazin-1-yl)ethoxy)phenyl)-6-(1-methylcyclopropoxy)-9-(pyridin-2-ylmethyl)-9H-purine]",5.01
9,"Cc1scnc1Cn1c(-c2ccc(OCCN3CCNCC3)cc2Cl)nc2c(OC3(C)CC3)ncnc21 [Example K12, 4-((8-(2-chloro-4-(2-(piperazin-1-yl)ethoxy)phenyl)-6-(1-methylcyclopropoxy)-9H-purin-9-yl)methyl)-5-methylthiazole]",63.1
10,"CC(=O)N1CCN(CCOc2cc(C)c(-c3nc4c(OC5(C)CC5)ncnc4n3Cc3ccccc3)cn2)CC1 [Example G4, 1-(4-(2-((5-(9-benzyl-6-(1-methylcyclopropoxy)-9H-purin-8-yl)-4-methylpyridin-2-yl)oxy)ethyl)piperazin-1-yl)ethan-1-one]",2
11,"Cc1cc(O[C@H]2CCNC2)ncc1-c1nc2c(OC3(C)CC3)ncnc2n1Cc1ccccc1 [Example G11, (S)-9-benzyl-8-(4-methyl-6-(pyrrolidin-3-yloxy)pyridin-3-yl)-6-(1-methylcyclopropoxy)-9H-purine]",3.98
12,"CC1(Oc2ncnc3c2nc(-c2ccc(/C=C/C(=O)O)cc2Cl)n3Cc2ccccc2)CC1 [Example M4, (E)-3-(4-(9-benzyl-6-(1-methylcyclopropoxy)-9H-purin-8-yl)-3-chlorophenyl)acrylic acid]",5.01
13,"CC1(Oc2ncnc3c2nc(-c2ccc(OCCN4CC5CC(C4)N5)cc2Cl)n3Cc2ccccc2)CC1 [Example R5, 3-(2-(4-(9-benzyl-6-(1-methylcyclopropoxy)-9H-purin-8-yl)-3-chlorophenoxy)ethyl)-3,6-diazabicyclo[3.1.1]heptane]",3.98
14,"COc1ccc(F)cc1Cn1c(-c2cccc(O[C@H]3C[C@@H](C(=O)O)C3)c2Cl)nc2c(OC3(C)CC3)ncnc21 [Example U74, (1s,3s)-3-(2-chloro-3-(9-(5-fluoro-2-methoxybenzyl)-6-(1-methylcyclopropoxy)-9H-purin-8-yl)phenoxy)cyclobutane-1-carboxylic acid]",3.98
15,"Cc1nc(Cn2c(-c3ccc(OCCN4CCNCC4)cc3Cl)nc3c(OC4(C)CC4)ncnc32)cs1 [Example K6, 4-((8-(2-chloro-4-(2-(piperazin-1-yl)ethoxy)phenyl)-6-(1-methylcyclopropoxy)-9H-purin-9-yl)methyl)-2-methylthiazole]",12.6
16,"COc1ccc(Cl)cc1Cn1c(-c2ccc(OCC[C@@H](C)C(=O)O)cc2Cl)nc2c(OC3(C)CC3)ncnc21 [Example 47, (R)-4-(3-chloro-4-(9-(5-chloro-2-methoxybenzyl)-6-(1-methylcyclopropoxy)-9H-purin-8-yl)phenoxy)-2-methylbutanoic acid]",6.31
17,"CN1CCN(CCOc2cc(F)c(-c3nc4c(OC5(C)CC5)ncnc4n3Cc3ccccc3)c(F)c2)CC1 [Example H1, 9-benzyl-8-(2,6-difluoro-4-(2-(4-methylpiperazin-1-yl)ethoxy)phenyl)-6-(1-methylcyclopropoxy)-9H-purine]",2.51
18,Cc1ccnc(Cn2c(-c3ccc(OCC(=O)N4C[C@@H]5C[C@H]4CO5)cc3Cl)nc3c(OC4(C)CC4)ncnc32)c1 [Example T549],10
19,"CC1(Oc2ncnc3c2nc(-c2ccc(OCCN4CCNCC4)cc2Cl)n3Cc2cc(C#N)ccn2)CC1 [Example L4, 2-((8-(2-chloro-4-(2-(piperazin-1-yl)ethoxy)phenyl)-6-(1-methylcyclopropoxy)-9H-purin-9-yl)methyl)isonicotinonitrile]",2
20,"CC1(Oc2ncnc3c2nc(-c2ccc(OCCN4CCNC(=O)C4)cc2Cl)n3Cc2ccccc2)CC1 [Example D15, 4-(2-(4-(9-benzyl-6-(1-methylcyclopropoxy)-9H-purin-8-yl)-3-chlorophenoxy)ethyl)piperazin-2-one]",3.16
21,"CC1(Oc2ncnc3c2nc(-c2cccc(O[C@H]4C[C@@H](C(=O)O)C4)c2Cl)n3Cc2cccc(Cl)c2)CC1 [Example T257, (1s,3s)-3-(2-chloro-3-(9-(3-chlorobenzyl)-6-(1-methylcyclopropoxy)-9H-purin-8-yl)phenoxy)cyclobutane-1-carboxylic acid]",3.16
22,"COc1cc(-c2nc3c(OC4(C)CC4)ncnc3n2Cc2ccccc2)c(Cl)cc1OCCN1CCNCC1 [Example J2, 9-benzyl-8-(2-chloro-5-methoxy-4-(2-(piperazin-1-yl)ethoxy)phenyl)-6-(1-methylcyclopropoxy)-9H-purine]",7.94
23,"Cc1ccnc(Cn2c(-c3ccc(OC[C@@H](C)O)cc3Cl)nc3c(OC4(C)CC4)ncnc32)c1 [Example 37, (R)-1-(3-Chloro-4-(6-(1-methylcyclopropoxy)-9-((4-methylpyridin-2-yl)methyl)-9H-purin-8-yl)phenoxy)propan-2-ol]",6.31
24,"CC1(Oc2ncnc3c2nc(-c2ccc(OC[C@H]4CCN4)cc2Cl)n3Cc2ccccc2)CC1 [Example D16, (R)-8-(4-(azetidin-2-ylmethoxy)-2-chlorophenyl)-9-benzyl-6-(1-methylcyclopropoxy)-9H-purine]",2.51

# — US20250195530A1, “POLQ INHIBITORS” (ASTRAZENECA AB, priority 2022, published 2025)
